Chains of the proteins cited; added tags and fusions are not shown.
Importin subunit beta-1 (Homo sapiens), Q14974, UniProt Q14974, whole entry, looked up: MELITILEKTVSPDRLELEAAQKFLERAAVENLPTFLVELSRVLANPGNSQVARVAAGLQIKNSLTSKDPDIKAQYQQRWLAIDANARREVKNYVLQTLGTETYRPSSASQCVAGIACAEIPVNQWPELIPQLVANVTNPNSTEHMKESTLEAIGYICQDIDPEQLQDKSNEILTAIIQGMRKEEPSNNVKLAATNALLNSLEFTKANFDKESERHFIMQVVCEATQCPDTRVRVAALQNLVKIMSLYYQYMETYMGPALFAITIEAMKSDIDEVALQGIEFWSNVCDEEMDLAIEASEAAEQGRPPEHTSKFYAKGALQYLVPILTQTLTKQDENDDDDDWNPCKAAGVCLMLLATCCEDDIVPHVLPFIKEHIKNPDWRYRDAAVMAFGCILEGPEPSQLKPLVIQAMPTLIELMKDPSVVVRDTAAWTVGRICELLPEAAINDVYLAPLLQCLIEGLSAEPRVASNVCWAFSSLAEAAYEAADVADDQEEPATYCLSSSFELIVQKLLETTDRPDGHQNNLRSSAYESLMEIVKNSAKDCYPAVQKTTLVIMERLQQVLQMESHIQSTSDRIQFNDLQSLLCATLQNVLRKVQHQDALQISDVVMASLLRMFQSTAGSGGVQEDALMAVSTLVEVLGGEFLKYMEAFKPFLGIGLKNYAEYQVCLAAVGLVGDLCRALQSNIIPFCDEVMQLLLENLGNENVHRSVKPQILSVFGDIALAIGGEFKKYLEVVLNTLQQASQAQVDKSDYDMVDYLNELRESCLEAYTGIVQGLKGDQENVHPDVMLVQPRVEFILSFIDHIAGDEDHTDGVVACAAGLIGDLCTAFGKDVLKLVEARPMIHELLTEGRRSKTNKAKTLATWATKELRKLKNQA

# Screening data: PubChem, National Center for Advancing Translational Sciences (NCATS)
# EPAC2 antagonist – qHTS for Antagonist of cAMP-regulated guanine nucleotide exchange factor 2 (EPAC2): primary screen. 0.18% of 360,000 active. AID 720708, 2013. Rap guanine nucleotide exchange factor 4 (Homo sapiens), Q8WZA2. Potency, µM (series often up to 114 µM), actives largely listed as inhibitors. EPAC2 GEF exchange of Rap1B-BODIPY-GDP, fluorescence; further: nearly all actives have a fitted effect of over 45% in size
# Rango dissoc inh – qHTS Assay for Inhibitors of RanGTP induced Rango (Ran-regulated importin-beta cargo) - Importin beta complex dissociation; 0.071% of 340,000 active; Snurportin-1 (Homo sapiens) + GTP-binding nuclear protein Ran (Homo sapiens) + Importin …; Potency, µM (top dose mostly 46.1 µM); Biochemical FRET Rango-importin beta, RanGTP-induced dissociation; AID 540253, 2011; calls by dose curve; further: nearly all actives have a fitted effect of over 45% in size
#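 Two FRET readings bracket the reaction: one 5 min after compound meets Rango–importin beta, another 45 min after RanGTP-RCC1 (0.6 uM Ran, 0.2 uM RCC1, 2 mM GTP) is added. Only the second defines inhibition.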
# EPAC1 agonist – qHTS for Agonist of cAMP-regulated guanine nucleotide exchange factor 3 (EPAC1): primary screen; EPAC1 agonist qHTS, biochemical assay; response scale: 100% = response to 6.5 mM cAMP; Potency, µM (titrated, usually from 154 µM), most hits filed as activators; 0.073% of 360,000 active; AID 720707, 2013; further: nearly all actives have a fitted effect of over 60% in size
#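 Read-out is the fluorescence drop as BODIPY-GDP leaves Rap1B (480 nm excitation, 540 nm emission), recorded every 5 minutes over 30 minutes. Reactions held 100 nM EPAC1, 250 nM Rap1B–BODIPY-GDP and 50 uM GDP, with 6.5 mM cAMP setting full activation.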
# EPAC2 agonist – qHTS for Agonist of cAMP-regulated guanine nucleotide exchange factor 4 (EPAC2): primary screen; Potency, µM (titrated, usually from 154 µM), most hits filed as activators; 0.079% of 360,000 active; Rap guanine nucleotide exchange factor 4 (Homo sapiens), Q8WZA2; EPAC2 activation, biochemical qHTS; response scale: 100% = 6.5 mM cAMP response; further: nearly all actives have a fitted effect of over 50% in size
#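 Each well held 100 nM EPAC2, 250 nM RAP1B-BODIPY-GDP and 50 uM GDP. Fluorescence, read at 5-min intervals to 30 min, was referenced to a 6.5 mM cAMP positive control.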
# Rango complex inh – qHTS Assay for Inhibitors of Rango (Ran-regulated importin-beta cargo) - Importin beta complex formation; Potency, µM (series often up to 92.2 µM); 0.031% of 340,000 active; Rango CFP/YFP FRET sensor + importin beta, 45 min; Importin subunit beta-1 (Homo sapiens), Q14974; calls by dose curve; further: nearly all actives have a fitted effect of over 15% in size
#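 FRET biosensor Rango (snurportin 1 IBB between N-terminal EYFP and C-terminal Cerulean), 50 nM in PBS/1 mM DTT/0.02% Tween-20/0.1% BSA, preincubated 5 min RT with compound; 0.125 microM importin beta added, 45 min RT, CFP/YFP FRET ratio read.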
# EPAC1 antagonist – qHTS for Antagonist of cAMP-regulated guanine nucleotide exchange factor 3 (EPAC1): primary screen; EPAC1 GEF assay, Rap1b-BODIPY-GDP exchange fluorescence; Potency, µM (doses to about 115 µM), hits mostly inhibitors; 0.14% of 360,000 active; further: nearly all actives have a fitted effect of over 50% in size
# Numbers stand for hits; – = inactive; ? = inconclusive; · = no result given. A selection: hits, their analogues and other compounds. The true share with any hit is near 0.48%. Unless noted, the call rests on the fitted dose curve; in most records, active means well fitted curve in the direction sought with a large enough effect; inconclusive means small, poorly fitted or top-dose-only effect, or another doubt; inactive means no such curve, though single readings can be large; an effect the other way counts as inactive or inconclusive.
SMILES,EPAC2 antagonist,Rango dissoc inh,EPAC1 agonist,EPAC2 agonist,Rango complex inh,EPAC1 antagonist
COc1ccc(S(=O)(=O)NC(CCSC)C(=O)NC2CCCCC2)cc1 (stereo unspecified),–,–,–,–,–,50µM
Oc1ccc(N=Cc2ccc(O)c(O)c2)cc1,?,–,–,–,–,40µM
Oc1ccc(/C=N/N=C/c2ccc(O)c(O)c2)cc1O,–,–,–,–,?,?
CCCCOc1ccc(C(=O)NCC(=O)NC(C)CCc2ccccc2)cc1 (stereo unspecified),–,–,–,–,–,–
O=C1C=C(c2c(O)ccc3ccccc23)c2ccccc2C1=O,?,–,–,–,–,35µM
O=C1C=C(O)c2cccc(O)c2C1=O,–,–,–,–,–,–
C=CCOc1ccc(/C=C2\SC(=S)N(NS(=O)(=O)c3ccc(C)cc3)C2=O)cc1,–,–,–,–,–,50µM
Cc1ccc(S(=O)(=O)NN2C(=O)/C(=C\c3ccc(Cl)cc3)SC2=S)cc1,–,–,–,–,–,?
Cc1ccc(/C=C2\SC(=S)N(NS(=O)(=O)c3ccc(C)cc3)C2=O)cc1,45µM,–,–,–,–,?
COc1ccc(/C=C2/SC(=S)N(NS(=O)(=O)c3ccc(C)cc3)C2=O)cc1,?,–,–,–,–,?
O=C(CSc1nnc(CN2CCOCC2)n1-c1ccccc1)N1CCc2ccccc21,–,–,–,–,–,–
CC1CCN(C(=O)CSc2nnc(CN3CCOCC3)n2-c2ccccc2)CC1,–,–,–,–,–,32µM
CC(=O)NC(c1ccc(F)c(F)c1)c1nc(-c2ccccc2C)cs1 (stereo unspecified),–,·,–,–,·,–
O=C1C(Nc2ccc(O)cc2)=C/C(=N/S(=O)(=O)c2cccs2)c2ccccc21,–,–,–,–,–,–
O=C(O)c1ccc(NC2=C/C(=N/S(=O)(=O)c3cccs3)c3ccccc3C2=O)cc1,?,·,–,–,·,50µM
Cc1cc(C)c(S(=O)(=O)/N=C2\C=C(Nc3ccc(C(=O)O)cc3)C(=O)c3ccccc32)c(C)c1,–,–,100µM,–,?,–
O=C(O)c1ccc(NC2=C/C(=N/S(=O)(=O)c3ccccc3)c3ccccc3C2=O)cc1,?,–,–,–,–,?
CS(=O)(=O)c1ccc2c(c1)sc1nc(=O)c(/C=C3/C=CC(=O)C(O)=C3)c(N)n12,–,?,–,–,?,50µM
NC(=O)c1c(NC(=O)c2ccccc2)sc2c1CCN(Cc1ccccc1)C2,–,?,–,89µM,?,–
CCN1CCc2c(sc(NC(=O)c3ccc(S(=O)(=O)N4CCCCCC4)cc3)c2C(=O)NC)C1,–,?,112µM,–,?,–
CCN1CCc2c(sc(NC(=O)Nc3ccc(Cl)c(Cl)c3)c2C(N)=O)C1,?,?,100µM,100µM,?,?
COC(=O)C1C2CC3c4[nH]c5cc(OC)ccc5c4CCN3CC2CC(OC2CCCCO2)C1OC (stereo unspecified),–,·,–,–,·,–
COC(=O)[C@H]1[C@H]2C[C@@H]3c4[nH]c5cc(OC)ccc5c4CCN3C[C@H]2C[C@@H](OC(=O)c2cc(OC)c(OC)c(OC)c2)[C@@H]1OC,–,12µM,–,–,?,–
O=C(O)CSc1cc(NS(=O)(=O)c2ccc(Cl)cc2)c2ccccc2c1O,79µM,–,–,?,–,?
COc1ccc(S(=O)(=O)Nc2cc(SCC(=O)O)c(O)c3ccccc23)cc1,–,–,–,–,–,79µM
SMILES,EPAC2 antagonist,Rango dissoc inh,EPAC1 agonist,EPAC2 agonist,Rango complex inh,EPAC1 antagonist
COC(=O)[C@@]12C[C@@H](CC(=O)NCc3ccc(OC)c(OC)c3)C(=O)N(Cc3cccc4ccccc34)C1=CCC(C)(C)C2,–,·,–,–,·,–
Cc1cccc(C)c1OCC(=O)Nc1ccccc1N1CCCCC1,10µM,–,–,–,–,–
COC(=O)c1cc(Cl)c(NC(=O)Cc2ccccc2)cc1OC,–,–,–,–,–,–
Cc1cc(NC(=O)C(C)SCC(=O)Nc2nnc(CC(C)C)s2)no1 (stereo unspecified),–,–,–,–,–,–
COc1cccc(NS(=O)(=O)c2ccc3c(c2)C2C=CCC2C(c2ccc(C(=O)O)cc2)N3)c1 (stereo unspecified),–,–,–,–,?,50µM
Cc1ccc(S(=O)(=O)NNC(=O)c2csnn2)cc1,–,?,–,–,52µM,–
Cc1ccc(S(=O)(=O)NNC(=O)c2ccccc2O)cc1,–,–,–,–,–,–
N#Cc1ccsc1NC(=O)C1CC(=O)N(Cc2ccccc2)C1 (stereo unspecified),–,–,–,–,–,–
O=S(=O)(O)c1cc(O)c(N=Nc2ccc(O)cc2O)c2ccccc12,45µM,–,–,–,?,79µM
CC1(C(=O)Nc2ccc3c(c2)OCCO3)CSCC(=O)N1CCc1ccccc1F (stereo unspecified),–,·,–,–,·,–
CCn1cc(/C=C/C(=O)c2ccc(O)cc2)c(C)n1,–,–,–,–,?,–
CSC1=NCCN1C(=O)c1ccc2c(c1)OCO2,–,–,–,–,–,–
CC1=CC(C)(C)N(C(=O)c2ccc(F)cc2)c2cc3c(cc21)OCO3,50µM,–,–,–,–,–
COc1ccc(CCN2CC(C(=O)Nc3ccc(S(C)(=O)=O)cc3)CC2=O)cc1OC (stereo unspecified),–,?,–,–,–,–
CCn1nc(NC(=O)C(C)C)c2cc3ccc(C)cc3nc21,–,–,–,–,?,–
CCn1nc(NC(C)=O)c2cc3ccc(C)cc3nc21,–,9.2µM,–,–,?,–
